Amino acid sequences for entries named in this document (tags omitted). Residues count along the entry.
UniProt Q9Y490, 309-401: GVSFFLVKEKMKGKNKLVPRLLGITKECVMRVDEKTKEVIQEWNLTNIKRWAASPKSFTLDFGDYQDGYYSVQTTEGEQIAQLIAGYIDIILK

In article PMC12102759 (Protein Science : A Publication of the Protein Society, 2025):

Biological target: TLN1 PTB (Homo sapiens, UniProt Q9Y490)
Assay type: binding
Details: for NGS_counts log2_total: DMS-BM phage selection against TLN1 PTB, log2 of summed NGS counts

Substance | DMS-derived PSSM value of the single-substitution variant | DMS-derived PSSM value, averaged over the two overlapping peptides | further results
FPTDERSWVYSPLHYS T3Q (FPQDERSWVYSPLHYS) | 0.07291 |  | 
TDERSWVYSPLHYSAQ S9L (TDERSWVYLPLHYSAQ) | 0 |  | 
FPTDERSWVYSPLHYS W8N (FPTDERSNVYSPLHYS) | 0 |  | 
TDERSWVYSPLHYSAQ H12A (TDERSWVYSPLAYSAQ) | 0.03687 |  | 
TDERSWVYSPLHYS(averaged) H12Q (TDERSWVYSPLQYS) |  | 0.07055 | 
TDERSWVYSPLHYS(averaged) H12S (TDERSWVYSPLSYS) |  | 0.03703 | 
TDERSWVYSPLHYSAQ S5P (TDERPWVYSPLHYSAQ) | 0.0575 |  | 
FPTDERSWVYSPLHYS Y10R (FPTDERSWVRSPLHYS) | 0.07605 |  | 
TDERSWVYSPLHYS(averaged) W6Y (TDERSYVYSPLHYS) |  | 0.002419 | 
TDERSWVYSPLHYSAQ R4A (TDEASWVYSPLHYSAQ) | 0.1059 |  | 
TDERSWVYSPLHYSAQ P10T (TDERSWVYSTLHYSAQ) | 0.03225 |  | 
TDERSWVYSPLHYSAQ P10H (TDERSWVYSHLHYSAQ) | 0.0683 |  | 
TDERSWVYSPLHYSAQ Y8F (TDERSWVFSPLHYSAQ) | 0.05295 |  | 
TDERSWVYSPLHYS(averaged) D2N (TNERSWVYSPLHYS) |  | 0.01696 | 
TDERSWVYSPLHYS(averaged) E3D (TDDRSWVYSPLHYS) |  | 0.007357 | 
TDERSWVYSPLHYSAQ S9I (TDERSWVYIPLHYSAQ) | 0.001144 |  | 
TDERSWVYSPLHYSAQ D2G (TGERSWVYSPLHYSAQ) | 0.0564 |  | 
FPTDERSWVYSPLHYS D4Q (FPTQERSWVYSPLHYS) | 0.04439 |  | 
TDERSWVYSPLHYS(averaged) L11M (TDERSWVYSPMHYS) |  | 0.07752 | 
TDERSWVYSPLHYSAQ L11Y (TDERSWVYSPYHYSAQ) | 0.01142 |  | 
TDERSWVYSPLHYS(averaged) W6N (TDERSNVYSPLHYS) |  | 0.006381 | 
TDERSWVYSPLHYSAQ D2Y (TYERSWVYSPLHYSAQ) | 0.01615 |  | 
FPTDERSWVYSPLHYS W8M (FPTDERSMVYSPLHYS) | 0 |  | 

Substance | DMS-derived PSSM value of the single-substitution variant | DMS-derived PSSM value, averaged over the two overlapping peptides | further results
FPTDERSWVYSPLHYS Y15K (FPTDERSWVYSPLHKS) | 0.1066 |  | 
TDERSWVYSPLHYSAQ Y13M (TDERSWVYSPLHMSAQ) | 0.022 |  | 
Ac-LADLIFTDSKLYLPLE-NH2 [TPTE2_I104L] |  |  | NGS_counts log2_total: 9.14
TDERSWVYSPLHYSAQ H12Y (TDERSWVYSPLYYSAQ) | 0.006924 |  | 
TDERSWVYSPLHYS(averaged) L11T (TDERSWVYSPTHYS) |  | 0.05838 | 
TDERSWVYSPLHYS(averaged) V7D (TDERSWDYSPLHYS) |  | 0.01732 | 
TDERSWVYSPLHYS(averaged) W6V (TDERSVVYSPLHYS) |  | 0.008677 | 
FPTDERSWVYSPLHYS W8L (FPTDERSLVYSPLHYS) | 0 |  | 
TDERSWVYSPLHYS(averaged) R4H (TDEHSWVYSPLHYS) |  | 0.01226 | 
TDERSWVYSPLHYSAQ E3S (TDSRSWVYSPLHYSAQ) | 0.06118 |  | 
TDERSWVYSPLHYSAQ Y13I (TDERSWVYSPLHISAQ) | 0.1432 |  | 
FPTDERSWVYSPLHYS S16Y (FPTDERSWVYSPLHYY) | 0.03257 |  | 
Ac-LADLIFTDNKLYIPLE-NH2 [TPTE2_S100N] |  |  | NGS_counts log2_total: 8.22
TDERSWVYSPLHYSAQ R4L (TDELSWVYSPLHYSAQ) | 0.1062 |  | 
TDERSWVYSPLHYS(averaged) H12K (TDERSWVYSPLKYS) |  | 0.01815 | 
TDERSWVYSPLHYS(averaged) E3I (TDIRSWVYSPLHYS) |  | 0.06072 | 
TDERSWVYSPLHYS(averaged) E3P (TDPRSWVYSPLHYS) |  | 0.09251 | 
TDERSWVYSPLHYSAQ S14P (TDERSWVYSPLHYPAQ) | 0.005566 |  | 
TDERSWVYSPLHYS(averaged) S5D (TDERDWVYSPLHYS) |  | 0.07346 | 
TDERSWVYSPLHYS(averaged) S9F (TDERSWVYFPLHYS) |  | 0.001144 | 
FPTDERSWVYSPLHYS S16D (FPTDERSWVYSPLHYD) | 0.02039 |  | 
FPTDERSWVYSPLHYS S11F (FPTDERSWVYFPLHYS) | 0 |  | 
FPTDERSWVYSPLHYS D4N (FPTNERSWVYSPLHYS) | 0.0112 |  | 

Substance | DMS-derived PSSM value of the single-substitution variant | DMS-derived PSSM value, averaged over the two overlapping peptides | further results
FPTDERSWVYSPLHYS Y10P (FPTDERSWVPSPLHYS) | 0.03355 |  | 
TDERSWVYSPLHYSAQ E3R (TDRRSWVYSPLHYSAQ) | 0.02636 |  | 
TDERSWVYSPLHYS(averaged) S9V (TDERSWVYVPLHYS) |  | 0.02505 | 
TDERSWVYSPLHYSAQ P10W (TDERSWVYSWLHYSAQ) | 0.002007 |  | 
FPTDERSWVYSPLHYS W8P (FPTDERSPVYSPLHYS) | 0.0437 |  | 
TDERSWVYSPLHYSAQ D2H (THERSWVYSPLHYSAQ) | 0.05615 |  | 
TDERSWVYSPLHYSAQ A15G (TDERSWVYSPLHYSGQ) | 0.01352 |  | 
TDERSWVYSPLHYSAQ P10S (TDERSWVYSSLHYSAQ) | 0.01332 |  | 
FPTDERSWVYSPLHYS E5F (FPTDFRSWVYSPLHYS) | 0.04033 |  | 
TDERSWVYSPLHYSAQ D2V (TVERSWVYSPLHYSAQ) | 0.03627 |  | 
FPTDERSWVYSPLHYS S11W (FPTDERSWVYWPLHYS) | 0.0282 |  | 
TDERSWVYSPLHYSAQ T1N (NDERSWVYSPLHYSAQ) | 0.005806 |  | 
TDERSWVYSPLHYS(averaged) T1P (PDERSWVYSPLHYS) |  | 0.03344 | 
TDERSWVYSPLHYS(averaged) Y8L (TDERSWVLSPLHYS) |  | 0.07793 | 
TDERSWVYSPLHYS(averaged) S9N (TDERSWVYNPLHYS) |  | 0.1108 | 
FPTDERSWVYSPLHYS Y10Y | 0.01108 |  | 
TDERSWVYSPLHYS(averaged) S5E (TDEREWVYSPLHYS) |  | 0.04656 | 
FPTDERSWVYSPLHYS H14T (FPTDERSWVYSPLTYS) | 0.2136 |  | 
FPTDERSWVYSPLHYS E5K (FPTDKRSWVYSPLHYS) | 0.01114 |  | 
TDERSWVYSPLHYS(averaged) Y8Q (TDERSWVQSPLHYS) |  | 0.03811 | 
TDERSWVYSPLHYSAQ Y8I (TDERSWVISPLHYSAQ) | 0.01435 |  | 
FPTDERSWVYSPLHYS R6T (FPTDETSWVYSPLHYS) | 0.02251 |  | 
TDERSWVYSPLHYS(averaged) W6R (TDERSRVYSPLHYS) |  | 0.008236 | 

Substance | DMS-derived PSSM value of the single-substitution variant | DMS-derived PSSM value, averaged over the two overlapping peptides | further results
TDERSWVYSPLHYS(averaged) E3A (TDARSWVYSPLHYS) |  | 0.01393 | 
FPTDERSWVYSPLHYS D4I (FPTIERSWVYSPLHYS) | 0.02659 |  | 
TDERSWVYSPLHYS(averaged) H12P (TDERSWVYSPLPYS) |  | 0.03454 | 
FPTDERSWVYSPLHYS S7D (FPTDERDWVYSPLHYS) | 0.02138 |  | 
TDERSWVYSPLHYSAQ Y8S (TDERSWVSSPLHYSAQ) | 0.01037 |  | 
TDERSWVYSPLHYSAQ T1G (GDERSWVYSPLHYSAQ) | 0.07139 |  | 
FPTDERSWVYSPLHYS S7W (FPTDERWWVYSPLHYS) | 0.0356 |  | 
FPTDERSWVYSPLHYS Y15G (FPTDERSWVYSPLHGS) | 0.06795 |  | 
TDERSWVYSPLHYSAQ L11K (TDERSWVYSPKHYSAQ) | 0.005533 |  | 
TDERSWVYSPLHYSAQ V7T (TDERSWTYSPLHYSAQ) | 0.1107 |  | 
FPTDERSWVYSPLHYS S7Q (FPTDERQWVYSPLHYS) | 0.002731 |  | 
TDERSWVYSPLHYS(averaged) S5Q (TDERQWVYSPLHYS) |  | 0.007151 | 
TDERSWVYSPLHYS(averaged) S9M (TDERSWVYMPLHYS) |  | 0.05805 | 
TDERSWVYSPLHYSAQ W6A (TDERSAVYSPLHYSAQ) | 0.002875 |  | 
TDERSWVYSPLHYSAQ T1F (FDERSWVYSPLHYSAQ) | 0.04961 |  | 
TDERSWVYSPLHYSAQ R4N (TDENSWVYSPLHYSAQ) | 0.02052 |  | 
FPTDERSWVYSPLHYS S7Y (FPTDERYWVYSPLHYS) | 0.03547 |  | 
TDERSWVYSPLHYS(averaged) P10Y (TDERSWVYSYLHYS) |  | 0.009631 | 
FPTDERSWVYSPLHYS P12W (FPTDERSWVYSWLHYS) | 0.02228 |  | 
TDERSWVYSPLHYSAQ L11A (TDERSWVYSPAHYSAQ) | 0.03143 |  | 
